Biological target: nNOS (Rattus norvegicus (Rat), UniProt P29476)
Test: biochemical
Format: biochemical
Details: recombinant isozyme

Compound	Ki
Cc1cc(N)nc(C[C@H]2CNC[C@@H]2NCCNCCc2ccccc2)c1 [Compound 4, N^1-((3R,4S)-4-((6-amino-4-methylpyridin-2-yl)methyl)pyrrolidin-3-yl)-N^2-phenethylethane-1,2-diamine]	0.88 µM
Cc1cc(N)nc(C[C@H]2CNC[C@H]2NCCNCCc2ccccc2)c1 [Compound 7, N^1-((3S,4S)-4-((6-amino-4-methylpyridin-2-yl)methyl)pyrrolidin-3-yl)-N^2-phenethylethane-1,2-diamine]	0.024 µM

— patent US9090589B2, “Specific nNOS inhibitors for the therapy and prevention of human melanoma” (priority 2011, dated 2015)
